ChEMBL document CHEMBL4190333, “Cyclic Biphalin Analogues Incorporating a Xylene Bridge: Synthesis, Characterization, and Biological Profile” (ACS Med Chem Lett, 2017)

Species: Rattus norvegicus
Experiment: Selectivity ratio of Ki for displacement of [3H]lleDelt2 from DOR in Wistar rat whole brain membranes to displacement of [3H]DAMGO from MOR in Wistar rat whole brain membranes
Assay type: cell membranes

## C[C@@H](NC(=O)[C@@H](N)Cc1ccc(O)cc1)C(=O)NCC(=O)N[C@@H](Cc1ccccc1)C(=O)NNC(=O)[C@H](Cc1ccccc1)NC(=O)CNC(=O)[C@@H](C)NC(=O)[C@@H](N)Cc1ccc(O)cc1 [BIPHALIN]
  Ratio Ki: 4.4
